The values below are quoted from earlier work in patent US4866036A, “Dipeptidyl 5-0,6-0-acyl-2-amino-2-deoxy-D-glucofuranose compositions and methods of use in aids-immunocompromised human hosts” (priority 1987, dated 1989).

For the data set the following is noted: clinical trials or clinical use.

The structures appear in SMILES notation.

For the molecule `NC(=O)c1ncn([C@@H]2O[C@H](CO)[C@@H](O)[C@H]2O)n1` [Ribavirin, 1β-D ribofuranosyl 1,2,4-triazole 3-carboxamide], the “toxicity / adverse effects in patients” value is on record as “well tolerated”.
